Earlier results as cited in PMC6719874 (PLoS ONE, 2019).

Experiments:
[1] = system: lung cancer, neuroblastoma cell lines, and two colon cancer cell lines
[2] = cancer / malignant solid tumors and Cushing's disease ref 18, 19

## CCC(CO)Nc1nc(NCc2ccccc2)c2ncn(C(C)C)c2n1 (centres unmarked) [R-roscovitine, 2-(1-ethyl-2-hydroxyethylamino)-6-benzylamino-9-isopropylpurine]
[1]
  concentration range reducing growth: 20 to 100 µM
[2]
  effective concentration in clinical trials: ~ 10 μM
